Results published in US20120135089A1, “E3 LIGASE INHIBITORS” (priority 2009, published 2012).

Sequences of proteins named here, by UniProt entry; tags and fusion partners are left off. A change or cut given only in a name is not applied to a line headed by its entry.
UniProt Q00987, whole entry: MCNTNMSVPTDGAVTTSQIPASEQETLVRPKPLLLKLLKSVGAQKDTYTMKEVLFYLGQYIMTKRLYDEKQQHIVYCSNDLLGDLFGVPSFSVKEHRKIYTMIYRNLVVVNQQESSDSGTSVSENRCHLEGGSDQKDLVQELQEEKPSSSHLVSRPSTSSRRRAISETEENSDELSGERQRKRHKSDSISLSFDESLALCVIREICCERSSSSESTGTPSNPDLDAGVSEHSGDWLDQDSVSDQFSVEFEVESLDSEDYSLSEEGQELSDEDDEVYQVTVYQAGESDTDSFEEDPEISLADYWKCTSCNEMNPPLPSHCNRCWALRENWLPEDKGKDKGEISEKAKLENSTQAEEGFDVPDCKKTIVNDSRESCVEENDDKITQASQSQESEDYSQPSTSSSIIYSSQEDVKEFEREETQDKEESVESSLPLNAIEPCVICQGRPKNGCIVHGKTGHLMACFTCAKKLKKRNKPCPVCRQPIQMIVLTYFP
UniProt Q00987, whole entry C464A: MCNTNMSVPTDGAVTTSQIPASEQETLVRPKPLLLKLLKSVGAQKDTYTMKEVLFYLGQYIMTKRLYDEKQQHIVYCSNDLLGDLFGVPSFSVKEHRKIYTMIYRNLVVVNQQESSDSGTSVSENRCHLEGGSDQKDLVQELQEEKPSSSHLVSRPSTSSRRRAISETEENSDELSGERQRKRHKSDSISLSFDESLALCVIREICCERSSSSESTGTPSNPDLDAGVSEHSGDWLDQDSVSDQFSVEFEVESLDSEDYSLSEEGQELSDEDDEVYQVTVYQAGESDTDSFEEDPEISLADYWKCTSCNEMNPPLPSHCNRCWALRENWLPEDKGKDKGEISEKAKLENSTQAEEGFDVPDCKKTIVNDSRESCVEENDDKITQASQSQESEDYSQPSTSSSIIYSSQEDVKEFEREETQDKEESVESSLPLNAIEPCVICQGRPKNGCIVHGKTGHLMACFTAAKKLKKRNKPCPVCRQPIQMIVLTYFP

How the values were obtained:
[1] = target: Mdm2(C464A)-luciferase fusion protein (Homo sapiens, UniProt Q00987, C464A); assay: counter screen in control Mdm2(C464A)-luciferase cell line; type: cell-based
Method: The Mdm2-luciferase cell line was seeded at 7,500 cells per well, in 384-well white plates (PerkinElmer, Waltham, Mass., Cat. No. 6007688), in 27 μl of media (DMEM with FBS and P/S). Assay plates with cells were incubated at 37° C. overnight to allow cells to adhere. After 24 hours, 2 μl from the ‘mother’ plate (4 mg/ml) was transferred to a ‘daughter plate’ containing 148 μl media in order to dilute the compound 1:75. Next, 3 μl from each well of the ‘daughter plates’ was added to triplicate assay plates for a final concentration of 5.33 μg/ml. Assay plates were incubated at 37° C. for 2 hours. Then the cells were lysed with the addition of 30 μl of luminescence buffer (PerkinElmer, Cat. No. 6016989), and the plates were incubated at room temperature for 30 minutes before being analyzed on a Victor3 Plate Reader (PerkinElmer) for luminescence. Compounds that caused an increase in luminescence greater than 30% were re-ordered for further analysis. […] This was determined by comparing the negative control, no treatment, to the positive control, 10 μM MG132. […]
The above experiments verified that the cell lines could function as a valid system to screen for Mdm2 E3 ligase inhibitors. […] All compounds were incubated with the Mdm2-luciferase cell line for 2 hours, after which relative luminescence was detected by the addition of a luminesence buffer. […]

[2] = target: Mdm2-luciferase fusion protein (Homo sapiens, UniProt Q00987); assay: cell-based Mdm2 auto-ubiquitination luminescence assay, Mdm2-luciferase cell line; settings: 384-well format

Compound | luminescence of the control Mdm2(C464A)-luciferase cell line [1] | luminescence of the Mdm2-luciferase cell line [2]
COc1cc(OC)c2c(=O)cc(-c3ccc(OC)c(-c4c(OC)cc(OC)c5c(=O)cc(-c6ccccc6)oc45)c3)oc2c1 | without significantly affecting | consistent activity in the cell-based assay
CC1CCN(Cc2cc(Cl)c3cccnc3c2O)CC1 | without significantly affecting | consistent activity in the cell-based assay
